The target in assay [1] is T1, cell-surface transferrin receptors on K562 cells (Homo sapiens, UniProt P02786).
T1 construct: endogenous in cells; host or cells: K562 cells (intact, washed)
Description: Competition by unlabelled conjugates for ^125I-transferrin binding sites on K562 cells. The following applies: vs 3 nM ^125I-diferric transferrin, 0° C. for 90 minutes, one-site competition model, read-out: equilibrium inhibition constant. On the procedure:
The characteristics of binding of the meta-^127I/^125I-iodoHoechst-transferrin conjugates to cell-surface transferrin receptors on K562 cells were also analysed by competition binding experiments (competition by unlabelled conjugates for ^125I-transferrin binding sites). K562 cells were washed three times with ice-cold 1% (w/v) bovine serum albumin (BSA) in serum-free RPMI 1640 medium containing 20 mM 4-(-2-hydroxyethyl)-1-piperazineethanesulfonic acid (HEPES), pH 7.4 and 80 I.U./ml gentamicin (RPMI 1640/BSA). Cell pellets (5×10^5 per sample) were suspended in 50 μl of assay buffer (200 mM Tris-HCl, 150 mM NaCl, pH 7.4, for estimation of total binding) containing a series of concentrations (0-500 nM) of the meta-^127I-iodoHoechst-transferrin conjugates (competing ligand; conjugation number 1.2, 1.1 and 2.9 for the disulphide, acylhydrazone and amide linked conjugates, respectively) was added to the K562 cells. This was followed by addition of a 50 μl aliquot of ^125I-diferric transferrin (3 nM final concentration; specific activity 30.5 Ci/mmole). The samples were incubated at 0° C. for 90 minutes and the cell-surface bound and free ^125I-diferric transferrin was separated by centrifugation at 10000×g for 3 minutes through a mineral oil-layer as described above. Following excision of the tips of the tubes or removal of the supernatant and most of the mineral oil, the ^125I-activity in the cell-pellets was counted in a β-counter. To correct for non-specific binding, assays were performed in parallel in the presence of a 50-fold molar excess of unlabelled diferric transferrin. Specific ^125I-diferric transferrin binding was represented by the difference of the total and non-specific binding. Control assays, in which the unconjugated meta-^127I-iodoHoechst analogue, at an equivalent concentration to the concentration of bisbenzimidazole moiety in the meta-^127I-iodoHoechst-transferrin conjugates was used as the competing ligand, were also performed. […]
The data derived from the competition binding studies were analyzed using a one-site competition model. […]

Protein sequences, listed by entry. Tags and fused reporters are not part of them.
UniProt P02786, whole entry: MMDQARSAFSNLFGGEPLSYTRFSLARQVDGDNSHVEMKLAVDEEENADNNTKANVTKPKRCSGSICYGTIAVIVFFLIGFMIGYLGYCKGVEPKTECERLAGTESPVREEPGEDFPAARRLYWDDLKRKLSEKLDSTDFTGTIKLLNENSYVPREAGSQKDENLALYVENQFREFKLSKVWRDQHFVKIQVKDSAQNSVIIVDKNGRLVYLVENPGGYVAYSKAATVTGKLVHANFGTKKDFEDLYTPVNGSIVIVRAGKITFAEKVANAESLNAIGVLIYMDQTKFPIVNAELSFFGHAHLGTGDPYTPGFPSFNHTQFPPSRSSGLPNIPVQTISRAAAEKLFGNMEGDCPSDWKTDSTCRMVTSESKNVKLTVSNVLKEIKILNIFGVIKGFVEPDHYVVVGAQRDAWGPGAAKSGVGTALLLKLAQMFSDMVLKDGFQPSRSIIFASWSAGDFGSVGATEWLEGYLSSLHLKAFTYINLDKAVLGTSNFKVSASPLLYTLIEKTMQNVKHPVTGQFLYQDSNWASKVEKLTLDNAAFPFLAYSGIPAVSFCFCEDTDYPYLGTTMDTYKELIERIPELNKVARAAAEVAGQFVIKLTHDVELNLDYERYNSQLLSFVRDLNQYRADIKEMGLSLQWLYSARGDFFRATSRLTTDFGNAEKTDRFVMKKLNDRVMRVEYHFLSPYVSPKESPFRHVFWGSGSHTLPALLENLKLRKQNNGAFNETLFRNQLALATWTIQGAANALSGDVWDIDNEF

For assay [2], the target named is T1, cell-surface transferrin receptors on K562 cells. The assay is described as follows: Receptor binding radioassay of labelled transferrin conjugates on K562 cells. The following applies: K562 cells (5×10^5), 10.3 nM, 90 minutes at 4° C.; 1-3 iodoHoechst moieties per transferrin. The text has this: An important requirement of immunoconjugates is that the protein moieties of the conjugates retain the binding affinity and specificity of the unmodified proteins for their respective cell-surface receptors or antigens. The binding characteristics of the meta-^127I/^125I-iodoHoechst-transferrin conjugates were compared to the binding characteristics of ^125I-transferrin to cell-surface transferrin receptors using receptor binding radioassays. For investigation of the binding of ^125I-transferrin and meta-^127I/^125I-iodoHoechst-transferrin conjugates, K562 cells were washed three times with 1% BSA/PBS. A 100 μl aliquot of 1% BSA/PBS or 100 μl of 1% BSA/PBS containing unlabelled human diferric transferrin (100-fold molar excess to ^125I-transferrin and meta-^127I/^125I-iodoHoechst-transferrin conjugates, for estimation of non-specific binding) was added to cells (5×10^5) in 200 μl 1% BSA/PBS. A 200 μl aliquot of ^125I-transferrin or meta-^127I/^125I-iodoHoechst-transferrin conjugates was added to appropriate samples. The samples were incubated for 90 minutes at 4° C. and the cell-surface bound and free ^125I-labelled ligands were separated by centrifugation at 10000×g for 3 minutes through a 50% dibutyl pthalate/50% dioctyl phthalate oil-layer (density 1.012 g/l) and the ^125I-activity in the cell pellets was determined in a β-counter.

Consider “acylhydrazone linked meta-^127I/^125I-iodoHoechst-transferrin conjugate: meta-^127I/^125I-iodoHoechst conjugated to thiolated transferrin via an acylhydrazone linkage (Example 15, FIG. 3)”, for which the Ki in assay [1] worked out at 3.9 ± 0.9 nM. Further, the “binding retained relative to unconjugated ^125I-transferrin to specific receptors” value in assay [2] was ~93%.

“amide linked meta-^127I/^125I-iodoHoechst-transferrin conjugate: meta-^127I/^125I-iodoHoechst conjugated to transferrin via an amide linkage (Example 16, FIG. 4)”: the Ki in assay [1] was determined as 3.1 ± 1.1 nM. Moreover, the “binding retained relative to unconjugated ^125I-transferrin to specific receptors” value in assay [2] is reported as “approximately 98%”.

With “disulphide linked meta-^127I/^125I-iodoHoechst-transferrin conjugate: meta-^127I/^125I-iodoHoechst conjugated to thiolated transferrin via a disulphide linkage (Example 14, FIG. 2)”, in assay [1], the Ki is 4.8 ± 1.3 nM. Further, the “binding retained relative to unconjugated ^125I-transferrin to specific receptors” value in assay [2] is recorded as ~88%.

The values above are taken from patent US8097238B2, “Cell targeting conjugates” (Peter MacCallum Cancer Institute, priority 2004, dated 2012).
